The text below walks through data of patent publication US20240199648A1, “MAP4K1 INHIBITORS” (Blueprint Medicines Corporation, priority 2021, published 2024).

By UniProt entry, the sequences of proteins in these tests, tags left out.
UniProt Q92918, whole entry: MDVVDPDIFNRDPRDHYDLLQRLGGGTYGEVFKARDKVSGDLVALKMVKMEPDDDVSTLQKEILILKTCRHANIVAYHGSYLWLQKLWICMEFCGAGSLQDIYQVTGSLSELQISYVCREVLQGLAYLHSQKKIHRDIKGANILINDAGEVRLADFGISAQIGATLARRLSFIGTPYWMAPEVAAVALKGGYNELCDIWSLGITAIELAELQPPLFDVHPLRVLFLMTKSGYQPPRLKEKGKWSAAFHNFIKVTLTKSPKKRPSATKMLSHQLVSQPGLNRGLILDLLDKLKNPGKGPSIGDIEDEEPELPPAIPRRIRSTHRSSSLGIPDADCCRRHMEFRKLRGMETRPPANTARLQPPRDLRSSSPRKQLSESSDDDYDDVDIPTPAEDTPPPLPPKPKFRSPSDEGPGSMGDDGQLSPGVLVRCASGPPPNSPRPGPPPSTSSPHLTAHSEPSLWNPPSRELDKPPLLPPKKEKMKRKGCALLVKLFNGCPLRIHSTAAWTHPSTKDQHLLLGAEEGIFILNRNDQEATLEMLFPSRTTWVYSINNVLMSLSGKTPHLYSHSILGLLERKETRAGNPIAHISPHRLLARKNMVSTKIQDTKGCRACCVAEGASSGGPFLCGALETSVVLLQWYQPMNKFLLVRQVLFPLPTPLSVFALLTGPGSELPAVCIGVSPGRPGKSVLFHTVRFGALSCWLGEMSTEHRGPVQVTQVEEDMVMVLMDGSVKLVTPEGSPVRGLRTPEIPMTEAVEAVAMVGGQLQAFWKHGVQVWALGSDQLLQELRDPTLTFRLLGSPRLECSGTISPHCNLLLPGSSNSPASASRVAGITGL

For one test, the target named is MAP4K1 (HPK1) (Homo sapiens, UniProt Q92918). Kind of test: Inhibition of MAP4K1 biochemical enzymatic activity (EZReader 2 electrophoretic mobility shift assay). The following applies: read-out: MAP4K1 IC50; HPK1 (Invitrogen), S6K2tide 1.5 μM, 120 min; ATP 26 μM or 1000 μM (not stated which). From the text:
MAP4K1 (HPK1) and relevant off-target enzymatic activity was monitored using the Perkin Elmer electrophoretic mobility shift technology platform—the EZReader 2. […] Within the linear, steady-state phase of the kinase enzymatic reaction, the mixed pool of phosphorylated (product) and non-phosphorylated (substrate) peptides was passed through the microfluidic system of the PerkinElmer EZ Reader 2, under an applied electric potential difference. The presence of the phosphate group on the product peptide provided a difference in mass and charge between that of the substrate peptide, resulting in a separation of the substrate and product pools in the sample (Perrin et al. 2010). As the product and substrate peptide mixture passes the lasers within the instrument, these pools are detected (λex=488 nm, λem=568 nm) and resolved as separate peaks. […]
Enzyme activity assays at the ^APPKM for ATP or 1 mM ATP: In each well of a 384-well plate, 0.1-15 nM of untreated enzyme was incubated in a total of 13 μL of buffer (100 mM HEPES pH 7.5, 0.015% Brij 35, 10 mM MgCl2, 1 mM DTT) with 1.5 μM fluorescent peptid and 20-1000 μM ATP, at 25° C., for 60-180 minutes in the presence or absence of a dosed concentration series of compound (1% DMSO final concentration). […] The plates were read on a Caliper EZReader 2 as described above.
(In EMSA bound probe runs differently from free probe, usually more slowly.)

The next test concerns Primary T Cell. Kind of test: T cell enhancement of cytokines: IL2 measurement (HTRF) in expanded CD3+ T cells stimulated with anti-CD3/anti-CD28. The following applies: read-out: IL-2 Primary T Cell EC50, plate-bound anti-CD3 and soluble anti-CD28, 24 h. As to the method:
T cells are isolated from whole blood of healthy donors by immunomagnetic negative selection following manufacture's protocol (StemCell Technologies, human T cell isolation kit). Purity of isolated cells is assessed by flow cytometry and yields 95-98% CD3^+ T cells. For expansion of T cells, 1×10^6 cells/well are plated in serum free cell expansion media (ThermoFisher) containing 30U of recombinant human IL2 (R&D) and stimulated with 25 ul of CD3/CD28 beads (Invitrogen) in 24 well plates for 3-4 days. T cells are then expanded in 175 cm flasks and maintained at a cell density of 1 to 2.5×10^6 cells/ml days by addition of ⅔ of fresh media every 2-3 days. After 10-14 days, cells are frozen in BamBanker freezing media (Thermo) and stored in liquid nitrogen.
For IL2 measurement, expanded CD3+ T cells are dispensed at 100K cells/well (cultured in X-VIVO 10 Serum-free media) and are stimulated with plate-bound anti-CD3 and soluble anti-CD28 in the presence of vehicle or compound of the disclosure at various concentrations for 24 h. As outlined in the manufacturer's protocol (Cisbio), 16 μL of conditioned media is transferred to a white 384-well low volume plate. Following a 24 h incubation with the anti-IL2 antibodies, the homogenous time resolved fluorescence (HTRF) is measured.
In general terms: Time-resolved FRET reads energy transfer from a long-lived donor to a nearby acceptor.

A word on the IC50: it is the concentration that inhibits the measured activity by half. Usually EC50 stands for the concentration needed to bring the measured effect to its halfway point.

Structures are written as SMILES.

Consider `COC[C@@](C)(N)c1cnc(O[C@H]2C[C@@H](C(=O)N(C)C)C2)c2cnc(Nc3ccc4c(n3)[C@@H](C)[C@H](C)OC4=O)cc12`, for which, at MAP4K1 (HPK1), the half-maximal inhibitory concentration (IC50) worked out at 0.22 nM. Further, the EC50 with Primary T Cell stood at 50 nM.
Consider `CCC(N)c1ccc(OC2CN(C(=O)[C@H]3C[C@H]3F)C2)c2cnc(Nc3ccc4c(n3)[C@@H](C)C(C)(C)OC4=O)cc12` (stereo partly shown), for which the IC50 on MAP4K1 (HPK1) worked out at 0.24 nM. Besides, the half-maximal effective concentration (EC50) in the test on Primary T Cell is 577 nM.
